One molecule from patent publication US20200243166A1 can be followed below.

Amino acid sequences for entries named in this document (tags omitted).
UniProt P00519, whole entry: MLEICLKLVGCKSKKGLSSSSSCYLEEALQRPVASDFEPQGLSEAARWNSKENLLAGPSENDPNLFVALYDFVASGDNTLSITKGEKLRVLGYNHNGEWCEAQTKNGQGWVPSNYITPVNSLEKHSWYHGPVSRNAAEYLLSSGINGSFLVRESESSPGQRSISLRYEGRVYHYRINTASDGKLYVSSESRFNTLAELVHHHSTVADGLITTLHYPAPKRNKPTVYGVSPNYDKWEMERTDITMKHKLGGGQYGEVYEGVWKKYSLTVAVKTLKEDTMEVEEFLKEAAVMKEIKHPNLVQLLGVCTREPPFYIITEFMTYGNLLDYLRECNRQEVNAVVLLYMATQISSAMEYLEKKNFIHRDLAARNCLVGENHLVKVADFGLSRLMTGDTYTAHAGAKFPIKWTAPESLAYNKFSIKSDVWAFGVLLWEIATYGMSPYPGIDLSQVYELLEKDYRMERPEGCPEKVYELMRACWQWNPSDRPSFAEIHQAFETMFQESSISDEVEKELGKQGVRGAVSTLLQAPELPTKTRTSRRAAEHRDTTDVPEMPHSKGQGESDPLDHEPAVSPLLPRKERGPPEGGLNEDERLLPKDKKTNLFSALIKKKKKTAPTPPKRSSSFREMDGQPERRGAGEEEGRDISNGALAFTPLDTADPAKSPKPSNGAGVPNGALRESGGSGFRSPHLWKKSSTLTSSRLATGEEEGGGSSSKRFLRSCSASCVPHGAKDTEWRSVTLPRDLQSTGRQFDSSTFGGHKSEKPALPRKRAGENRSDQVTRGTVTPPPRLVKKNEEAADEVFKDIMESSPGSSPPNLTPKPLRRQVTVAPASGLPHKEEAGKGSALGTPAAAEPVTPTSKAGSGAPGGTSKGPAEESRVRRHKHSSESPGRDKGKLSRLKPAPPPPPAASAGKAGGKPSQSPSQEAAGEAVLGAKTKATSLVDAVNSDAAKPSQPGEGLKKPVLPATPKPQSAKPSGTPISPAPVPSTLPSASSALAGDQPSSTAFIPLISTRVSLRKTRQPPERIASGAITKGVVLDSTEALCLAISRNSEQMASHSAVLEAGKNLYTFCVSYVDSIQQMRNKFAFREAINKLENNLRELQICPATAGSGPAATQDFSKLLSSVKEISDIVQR

The target of this assay is protein ABL1 (Homo sapiens, UniProt P00519). The assay can be described thus: binding force / activity against protein ABL1 (IC50). To be noted: read-out: binding force, IC50 (50% inhibitory concentration); ligand for protein ABL1 (kinase). Here is the method: The binding force of this ligand is at a level of 1 μM with an IC50 (50% inhibitory concentration). […] In a case where the activity of this compound is actually measured, the activity is at the same level as that of the ligand. That is, FIGS. 11A and 11B are an example showing that compounds having similar invariant AAM descriptors have similar drug efficacies. As described above, according to the first embodiment, a feature quantity (invariant AAM descriptor) accurately showing the chemical properties of the target structure can be obtained.

As for `COc1ccccc1Oc1ccc2n[nH]c(-c3nc4ccc(N5CCC(N6CCCCC6)CC5)cc4[nH]3)c2c1`, the IC50 worked out at 1000 nM.
